PubChem BioAssay (NCATS)
Only a part is listed here, and it is no random draw. Results filed as inconclusive are left out. Activity calls are given as the source filed them. Unless noted, calls come from the whole dose curve; as a rule, active = well fitted curve in the direction sought with a large enough effect; inconclusive = small, poorly fitted or top-dose-only effect, or another doubt; inactive = no such curve, though single readings can be large; an effect the other way counts as inactive or inconclusive.

Columns and labels:
[1] = AP1 Signaling Pathway (AID 357; active = well fitted curve in either direction with a large enough effect, not every such curve was filed as active;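 note: ME-180 reporter cells stimulated with EGF at its EC50 level; % is set by controls: 0 for no effect and ±100 for the full control effect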); details: ME-180 AP-1-bla reporter, EGF-induced, beta-lactamase ratio, 5 h; at 7.69 µM (top of the series)
In short: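 Beta-lactamase reporter under AP-1 response element, ME-180 background. Stimulus: EC50 EGF. Compound exposure 5 h, 37 °C. Detection: CCF4, 2.5 h RT, 460/530 nm. Values: AC50 from titration.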

[2] = NFAT Signaling Pathway (AID 444; active = well fitted curve in either direction with a large enough effect, not every such curve was filed as active;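 note: carbachol stimulus at about its EC50 of 1 µM final; % is set by controls: 0 for no effect and ±100 for the full control effect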); details: Jurkat NFAT-bla M1, carbachol, beta-lactamase ratio, 5 h; at 7.69 µM (top of the series)
In short: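 Jurkat cells with NFAT-driven β-lactamase reporter and co-expressed M1 receptor, stimulated with carbachol (final 1 uM, ~EC50), compound titration, 5 h at 37 °C. CCF4 loaded 1 h at RT; 460/530 nm ratio gave %activity and AC50.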

[3] = Stat Signaling Pathway (AID 446; active = well fitted curve in either direction with a large enough effect, not every such curve was filed as active;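 note: ME-180 cervical cancer cells given 40 pM IL-6 alongside compound; SIE-controlled beta-lactamase reporter measured as 460/530 nm FRET emission ratio; % is set by controls: 0 for no effect and ±100 for the full control effect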); details: ME-180 (cervical carcinoma) SIE beta-lactamase reporter, IL-6 stimulated, 5 h; at 7.69 µM (top of the series)
Procedure: NCGC Assay Overview: The IL-6/STAT signaling pathway was assayed in ME-180 cervical carcinoma cells by a beta-lactamase reporter gene controlled by a STAT Inducible Element (SIE). This reporter is induced by IL-6 at 40 pM AC50 and inhibited by the pan JAK inhibitor, 2-(1,1-Dimethylethyl)-9-fluoro-3,6-dihydro-7H-benz[h]-imidaz[4,5-f]isoquinolin-7-one, at approximately 10 nM AC50. Plated cells were incubated overnight and on the following day, stimulated with 40 pM IL-6 for 5 hrs. The assay was screened at the AC50 of IL-6 activation to identify both inhibitors and activators of IL-6/STAT signaling.
NCGC Assay Protocol Summary: Cells were trypsinized, washed in assay medium (AM, OPTI MEM with 0.5% fetal bovine serum, 0.1 mM nonessential amino acids, 1 mM sodium pyruvate, 10mM HEPES pH 7.3, 100U/ml penicillin, and 100 ug/ml streptomycin) and suspended at 6 x 10e5/ml in AM. Approximately […] cells in 5 uL/well was dispensed into 1536 well plates and the cells were incubated overnight at 37 C. 23 nL of compound were delivered by a pin tool and 1 uL of IL-6 (40 pM final concentration in AM) was added. […] One uL of detector mix (LiveBLAzerTM, Invitrogen) was added, the plates incubated at room temperature for 2.5 hrs, and fluorescence intensity at 460 and 530 nm emission was measured at 405 nm excitation by an Envision (Perkin Elmer) or Safire II (Tecan). […]

[4] = target: Mitogen-activated protein kinase 10 (Mus musculus) (UniProt Q61831); assay: JNK3 AlphaScreen Assay (AID 530; active = well fitted curve in either direction with a large enough effect, not every such curve was filed as active;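 note: kinase came from lysate of stimulated human HepG2 cells; signal reports phosphorylation of biotinylated GST-cJun 1-79 at Ser73 with 10 µM ATP; % is set by controls: 0 for no effect and ±100 for the full control effect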); details: JNK3 lysate, c-Jun phosphorylation; at 57.1 µM (top of the series) unless noted
In short: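 Pre-activated (IL-1β/TNFα) JNK3 in HepG2 lysates phosphorylates biotin-GST-cJun(1-79), 10 uM ATP; anti-phospho-cJun(Ser73) AlphaScreen read at room temperature, pH 7.6 Tris buffer. Compounds pre-incubated 15 min as titrations.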

[5] = Cell Viability - N2a (AID 540); details: N2a mouse neuroblastoma cell viability; at 92.2 µM (top of the series);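 note: plate controls were DMSO alone for no effect and tamoxifen control for full effect; nearly all actives have a fitted effect of over 45% in size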
In short: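 Mouse neuroblastoma N2a cells, 1500/well, exposed to compounds 40 h at 37 °C in complete medium. Viability measured as cellular ATP by CellTiter-Glo luminescence; AC50 from Hill fits of concentration-response.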

[6] = Cell Viability - NIH 3T3 (AID 541); details: NIH 3T3 cell viability, qHTS; at 92.2 µM (top of the series);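 note: plate controls were DMSO alone for no effect and tamoxifen positive control for full effect; nearly all actives have a fitted effect of over 25% in size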
Description: (§1) NIH Chemical Genomics Center [NCGC]
(§2) NIH Molecular Libraries Screening Centers Network [MLSCN]
(§3) National Institutes of Environmental Health Sciences [NIEHS]
(§4) National Toxicology Program [NTP]
We have developed a 1536-well cell-based assay for quantitative high throughput screening (qHTS) against a number of cell lines to determine in vitro cytotoxicity of small molecules. This particular assay uses the NIH 3T3 fibroblast cell line which is established from NIH Swiss mouse embryo.
(§5) NCGC Assay Protocol Summary:
(§6) The CellTiter-Glo luminescent cell viability assay (Promega) is a homogeneous method to measure the number of viable cells in culture. The end point readout of this assay is based on quantitation of intracellular ATP, an indicator of metabolic activity, using the luciferase reaction. […]
(§7) Using the CellTiter-Glo luminescent cell viability assay, the amount of cellular ATP was measured in the NIH 3T3 cell line with complete culture medium following compound treatment for 40 hours. […] Library compounds were measured for their ability to cause acute toxicity in the cell line, as reflected by a decrease in intracellular ATP levels, in a concentration-dependent manner. […] AC50 values were determined from concentration-response data modeled with the standard Hill equation. […]
(§8) 8. Detection; Luminescence; Viewlux plate reader […]

[7] = Cell Viability - HUV-EC-C (AID 542); details: HUV-EC-C endothelial cell viability, qHTS; at 92.2 µM (top of the series); note: % is set by controls: 0 for no effect and ±100 for the full control effect; nearly all actives have a fitted effect of over 35% in size
In short: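 HUV-EC-C human vascular endothelial cells, 1000/well, exposed to compound for 40 hr at 37 °C in complete medium. Intracellular ATP was read by CellTiter-Glo luminescence. AC50 came from Hill-equation fits of concentration-response data.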

[8] = Cell Viability - H-4-II-E (AID 543); details: H-4-II-E rat hepatoma viability; at 92.2 µM (top of the series); note: % is set by controls: 0 for no effect and ±100 for the full control effect; nearly all actives have a fitted effect of over 35% in size
Description: as §1, §2, §3, §4
We have developed a 1536-well cell-based assay for quantitative high throughput screening (qHTS) against a number of cell lines to determine in vitro cytotoxicity of small molecules. This particular assay uses the H-4-II-E cell line which is derived from rat hepatoma.
as §5
as §6, with “reaction. Luciferase catalyzes the oxidation of beetle Luciferin to oxyluciferin and light in the presence of ATP.” for “reaction.”
as §7, with “H-4-II-E” for “NIH 3T3”
as §8

[9] = Cell Viability - SH-SY5Y (AID 544); details: SH-SY5Y neuroblastoma cell viability; at 92.2 µM (top of the series);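 note: 0% = DMSO alone and -100% = 100 µM tamoxifen; nearly all actives have a fitted effect of over 55% in size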
In short: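 SH-SY5Y human neuroblastoma cells (1500/well) incubated 5 h, then compound-treated 40 h at 37 °C in complete medium. Viability read as intracellular ATP by CellTiter-Glo luminescence after 20 min; AC50 from Hill-equation fits of qHTS concentration-response.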

[10] = Cell Viability - Renal Proximal Tubule (AID 545); details: renal proximal tubule cells viability, primary cells of rat origin; at 91.7 µM (top of the series);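 note: 0% = DMSO only and -100% = 100 µM tamoxifen; nearly all actives have a fitted effect of over 40% in size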
In short: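 Rat renal proximal tubule primary cells, 1000/well, exposed to compounds for 40 hr at 37 °C in complete medium; cellular ATP read by CellTiter-Glo luminescence. AC50 from concentration-response fitted with standard Hill equation.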

NC1CCCCC1.NP(=O)(O)N(CCCl)CCCl
inactive: activity change, negative = inhibition [1] -0.616% | activity change, negative = inhibition [2] 9.97% | activity, negative = inhibition [3] 0.169% | activity change, negative = inhibition [4] 1.44% [at 11.4 µM]

CCOP(=O)(Cl)Cl
inactive: activity change, negative = inhibition [4] 11% | activity change, negative = cytotoxicity [5] 6.06% | activity change, negative = cytotoxicity [6] 0.762% | activity change, negative = cytotoxicity [7] -6.59% | activity change, negative = cytotoxic [8] -4% | viability change, negative = cytotoxic [9] 3.24% | activity change, negative = cytotoxicity [10] -1.87%

O=C(O)C1(Nc2ccccc2)CCN(Cc2ccccc2)CC1
inactive: activity change, negative = inhibition [1] 3.45% | activity change, negative = inhibition [2] 6.7% | activity, negative = inhibition [3] 12.1% | activity change, negative = inhibition [4] 6.43% [at 11.4 µM]

ClCCOP(OCCCl)OCCCl
inactive: activity change, negative = inhibition [4] 26% | activity change, negative = cytotoxicity [5] 0.3% | activity change, negative = cytotoxicity [6] -14.8% | activity change, negative = cytotoxicity [7] 1.23% | activity change, negative = cytotoxic [8] 0.912% | viability change, negative = cytotoxic [9] -17.6% | activity change, negative = cytotoxicity [10] 1.51%
